Data on 2 molecules can be found in patent US5180678A, “Uses of substantially pure interleukin-9 receptor” (Ludwig Institute for Cancer Research, priority 1992, dated 1993).

The target of this test is T1, IL-9R (Mus musculus, UniProt Q01114).
T1 sequence (Q01114 38-468): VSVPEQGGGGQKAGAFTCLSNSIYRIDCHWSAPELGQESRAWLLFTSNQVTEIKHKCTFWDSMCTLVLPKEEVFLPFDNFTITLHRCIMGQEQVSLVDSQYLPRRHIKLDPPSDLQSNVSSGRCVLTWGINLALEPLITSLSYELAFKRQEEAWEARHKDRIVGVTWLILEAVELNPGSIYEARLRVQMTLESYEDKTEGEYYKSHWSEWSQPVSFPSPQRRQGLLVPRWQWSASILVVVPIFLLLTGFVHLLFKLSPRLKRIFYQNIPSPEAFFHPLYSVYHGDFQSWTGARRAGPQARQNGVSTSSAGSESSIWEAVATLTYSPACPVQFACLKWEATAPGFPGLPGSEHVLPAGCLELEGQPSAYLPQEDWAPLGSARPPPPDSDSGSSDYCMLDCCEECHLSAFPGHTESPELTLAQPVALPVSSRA
Put plainly: Competitive binding of radiolabelled rIL-9 to TS1 cells (specificity of IL-9 binding). Details: a number of different cell types were tested for the presence of the IL-9R molecule; endogenous in cells. The conditions noted are these: labelled rIL-9 6.1×10^-10 M, 10^6 TS1 cells, 3 h 4° C., no competitor 4083 ± 16. How it is done: In order to test whether the radioactive IL-9 would bind to TS1 cells which are mouse cells, which are IL-9 dependent, a competitive assay was carried out. Specifically, rIL-9 was incubated with TS1 cells in 140 ul of DMEM containing BSA (10 mg/ml) and Na3 N (10 mM). In order to determine the level of binding, a 100 fold excess of "cold", i.e., non-radiolabelledIL-9, was also mixed with the material. The rIL-9 was admixed at 6.1×10^-10 M, for three hours at 4° C., with 10^6 TS1 cells. Bound material was separated from free ligand via centrifugation over a layer of dibutyl and dioctyl phthalate (15:I). In addition, the experiments were repeated using various interleukins, interferon-γ ("INF-γ"), tumor necrosis factor ("TNF"), and granulocyte, macrophage colony stimulating factor ("GM-CSF"). All experiments were carried out in triplicate.

In the case of “IL-2: interleukin tested as competitor of IL-9 binding”, the “Bound Radioactivity” value (competitor 9.3 × 10^-8 M) was determined as 4255 ± 237 cpm.

B1: IL-3: interleukin tested as competitor of IL-9 binding (protein, UniProt P08700 20-152, looked up)
Interleukin-3: APMTQTTPLKTSWVNCSNMIDEIITHLKQPPLPLLDFNNLNGEDQDILMENNLRRPNLEAFNRAVKSLQNASAIESILKNLLPCLPLATAAPTRHPIHIKDGDWNEFRRKLTFYLKTLENAQAQQTTLSLAIF
Turning to B1, for the setting “competitor 5.0 × 10^-8 M”, the “Bound Radioactivity” value is listed as 4471 ± 7 cpm.
